Test results published in paper PMC9061857, “A fluorogenic probe for granzyme B enables in-biopsy evaluation and screening of response to anticancer immunotherapies” (Nature Communications, 2022).

By UniProt entry, the sequences of proteins in these tests, tags left out. Residues count along the entry.
UniProt P10144, 21-247 limits assumed: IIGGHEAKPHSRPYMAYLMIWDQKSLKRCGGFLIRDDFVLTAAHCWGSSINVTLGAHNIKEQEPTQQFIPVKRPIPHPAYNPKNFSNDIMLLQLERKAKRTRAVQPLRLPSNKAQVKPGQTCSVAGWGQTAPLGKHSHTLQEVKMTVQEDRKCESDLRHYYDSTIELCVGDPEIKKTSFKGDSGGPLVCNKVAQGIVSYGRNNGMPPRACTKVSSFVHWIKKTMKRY

What was measured:
recombinant human GzmB = recombinant human GzmB (Homo sapiens, UniProt P10144); assay: Kinetic measurements (Michaelis-Menten) with recombinant hGzmB; type: biochemical; conditions: hGzmB 20 nM, 37 °C, n = 3
hGzmB = assay: Limit of detection of hGzmB by probe fluorescence; conditions: limit of detection of hGzmB (Fig. S1)
human GzmB (hGzmB) [1] = target: T1, human GzmB (hGzmB) (Homo sapiens, UniProt P10144); assay: HPLC conversion of fluorogenic peptides by hGzmB; type: biochemical; conditions: TRIS buffer, 37 °C
human GzmB (hGzmB) [2] = target: T1, human GzmB (hGzmB); assay: Fluorescence assay with recombinant hGzmB (fluorogenic response, time course); type: biochemical; conditions: probe 25 μM, hGzmB 20 nM

## CCC(C)C(NC(=O)CCc1ccc2n1[B-](F)(F)[N+]1=C(C)C=C(C)C1=C2)C(=O)NC(CCC(=O)O)C(=O)N1CCCC1C(=O)NC(CC(=O)O)C(=O)NCCNC(=O)c1ccc(N=Nc2ccc(N(C)C)cc2)cc1 (stereo not shown)
Recombinant human GzmB
  Kcat: 2.3 s⁻¹
  Km: 30.8 µM
hGzmB
  LoD: 17 nM
Human GzmB (hGzmB) [1]; 2h-20 nM hGzmB, Data 1
  HPLC conversion rate: 2%
Human GzmB (hGzmB) [1]; 2h-20 nM hGzmB, Data 2
  HPLC conversion rate: 1%
Human GzmB (hGzmB) [1]; 2h-20 nM hGzmB, Data 3
  HPLC conversion rate: 1%
Human GzmB (hGzmB) [1]; 2h-50 nM hGzmB, Data 1
  HPLC conversion rate: 3.5%
Human GzmB (hGzmB) [1]; 2h-50 nM hGzmB, Data 2
  HPLC conversion rate: 2.5%
Human GzmB (hGzmB) [1]; 2h-50 nM hGzmB, Data 3
  HPLC conversion rate: 3%
Human GzmB (hGzmB) [1]; 2h-100 nM hGzmB, Data 1
  HPLC conversion rate: 7%
Human GzmB (hGzmB) [1]; 2h-100 nM hGzmB, Data 2
  HPLC conversion rate: 4%
Human GzmB (hGzmB) [1]; 2h-100 nM hGzmB, Data 3
  HPLC conversion rate: 5.5%
Human GzmB (hGzmB) [1]; 6h-20 nM hGzmB, Data 1
  HPLC conversion rate: 2%
Human GzmB (hGzmB) [1]; 6h-20 nM hGzmB, Data 2
  HPLC conversion rate: 1.5%
Human GzmB (hGzmB) [1]; 6h-20 nM hGzmB, Data 3
  HPLC conversion rate: 1.5%
Human GzmB (hGzmB) [1]; 6h-50 nM hGzmB, Data 1
  HPLC conversion rate: 4.5%
Human GzmB (hGzmB) [1]; 6h-50 nM hGzmB, Data 2
  HPLC conversion rate: 3%
Human GzmB (hGzmB) [1]; 6h-50 nM hGzmB, Data 3
  HPLC conversion rate: 3.5%
Human GzmB (hGzmB) [1]; 6h-100 nM hGzmB, Data 1
  HPLC conversion rate: 12.5%
Human GzmB (hGzmB) [1]; 6h-100 nM hGzmB, Data 2
  HPLC conversion rate: 6%
Human GzmB (hGzmB) [1]; 6h-100 nM hGzmB, Data 3
  HPLC conversion rate: 10.5%
Human GzmB (hGzmB) [1]; 24h-20 nM hGzmB, Data 1
  HPLC conversion rate: 3.5%
Human GzmB (hGzmB) [1]; 24h-20 nM hGzmB, Data 2
  HPLC conversion rate: 3%
Human GzmB (hGzmB) [1]; 24h-20 nM hGzmB, Data 3
  HPLC conversion rate: 3.5%
Human GzmB (hGzmB) [1]; 24h-50 nM hGzmB, Data 1
  HPLC conversion rate: 7%
Human GzmB (hGzmB) [1]; 24h-50 nM hGzmB, Data 2
  HPLC conversion rate: 5%
Human GzmB (hGzmB) [1]; 24h-50 nM hGzmB, Data 3
  HPLC conversion rate: 6%
Human GzmB (hGzmB) [1]; 24h-100 nM hGzmB, Data 1
  HPLC conversion rate: 20%
Human GzmB (hGzmB) [1]; 24h-100 nM hGzmB, Data 2
  HPLC conversion rate: 12%
Human GzmB (hGzmB) [1]; 24h-100 nM hGzmB, Data 3
  HPLC conversion rate: 17%
Human GzmB (hGzmB) [1]; probe 25 μM (Ac-IEPD-AMC 50 μM), HPLC-UV
  HPLC conversion (100 nM hGzmB, 24 h): 14%
Human GzmB (hGzmB) [2]; Data 1
  S/N ratios: 3
Human GzmB (hGzmB) [2]; Data 2
  S/N ratios: 3
Human GzmB (hGzmB) [2]; Data 3
  S/N ratios: 3
